Test results as given in paper PMC8704661, “A Structural Approach to Anti-Virulence: A Discovery Pipeline” (Microorganisms, 2021).

Assays:
[1] = target: T1, Plx2A (Paenibacillus larvae, UniProt M9V3B7); test: biochemical; assay type: binding
[2] = target: T1, Plx2A; test: biochemical

| SMILES | Kd [1] [µM] | IC50 [2] [µM] |
| --- | --- | --- |
| O=c1cc(-c2ccccc2)oc2cc(O)c(O)c(O)c12 [Baicalein, 5,6,7-trihydroxy-2-phenyl-4H-chromen-4-one] | 13.6 ± 1.5 | 10.7 ± 0.7 |
| COc1ccc(-c2cc(=O)c3c(O)cc(O)cc3o2)cc1 [Acacetin, 5,7-dihydroxy-2-(4-methoxyphenyl)-4H-chromen-4-one] |  | 28 ± 2.3 |
